The source of these data is ChEMBL document CHEMBL2390842, “Development of indole/indazole-aminopyrimidines as inhibitors of c-Jun N-terminal kinase (JNK): optimization for JNK potency and physicochemical properties” (Bioorg Med Chem Lett, 2013).

Amino acid sequences for entries named in this document (tags omitted). A change or cut given only in a name is not applied to a line headed by its entry.
UniProt P45983: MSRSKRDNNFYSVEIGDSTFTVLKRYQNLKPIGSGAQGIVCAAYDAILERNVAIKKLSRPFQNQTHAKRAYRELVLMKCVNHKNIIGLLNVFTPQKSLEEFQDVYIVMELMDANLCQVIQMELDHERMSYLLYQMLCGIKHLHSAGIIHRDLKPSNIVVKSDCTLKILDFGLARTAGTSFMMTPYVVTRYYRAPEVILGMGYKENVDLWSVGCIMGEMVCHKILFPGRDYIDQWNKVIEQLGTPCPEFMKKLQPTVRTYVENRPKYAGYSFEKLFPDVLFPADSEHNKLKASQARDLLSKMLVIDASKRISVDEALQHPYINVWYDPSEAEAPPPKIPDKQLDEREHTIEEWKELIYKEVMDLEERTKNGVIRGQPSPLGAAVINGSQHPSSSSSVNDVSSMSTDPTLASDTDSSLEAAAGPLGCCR
UniProt P53779: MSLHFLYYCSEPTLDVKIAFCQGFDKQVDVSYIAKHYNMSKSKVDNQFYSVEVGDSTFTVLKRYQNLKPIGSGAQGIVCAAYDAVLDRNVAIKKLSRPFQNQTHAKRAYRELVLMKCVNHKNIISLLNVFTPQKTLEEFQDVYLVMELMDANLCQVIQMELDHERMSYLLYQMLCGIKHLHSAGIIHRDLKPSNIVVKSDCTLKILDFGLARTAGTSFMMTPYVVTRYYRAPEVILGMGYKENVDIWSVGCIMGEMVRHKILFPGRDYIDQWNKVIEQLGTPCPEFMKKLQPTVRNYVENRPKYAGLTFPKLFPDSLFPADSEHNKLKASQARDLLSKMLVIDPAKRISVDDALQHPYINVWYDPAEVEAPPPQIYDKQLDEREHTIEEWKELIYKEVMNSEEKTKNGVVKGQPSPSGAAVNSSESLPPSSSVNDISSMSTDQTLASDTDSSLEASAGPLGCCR
UniProt P45984: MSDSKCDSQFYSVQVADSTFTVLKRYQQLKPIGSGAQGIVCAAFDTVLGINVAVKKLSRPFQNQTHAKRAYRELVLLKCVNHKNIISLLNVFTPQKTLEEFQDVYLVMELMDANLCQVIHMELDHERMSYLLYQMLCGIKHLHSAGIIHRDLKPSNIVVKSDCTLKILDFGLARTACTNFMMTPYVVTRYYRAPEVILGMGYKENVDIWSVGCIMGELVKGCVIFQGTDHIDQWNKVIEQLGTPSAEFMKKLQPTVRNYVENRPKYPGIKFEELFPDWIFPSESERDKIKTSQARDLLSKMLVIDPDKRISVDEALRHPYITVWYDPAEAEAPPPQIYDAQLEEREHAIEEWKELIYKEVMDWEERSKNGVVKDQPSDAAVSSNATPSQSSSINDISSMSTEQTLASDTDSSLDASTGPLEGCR

The target of test [1] is T1, Mitogen-activated protein kinase 8 (Homo sapiens, UniProt P45983). As to the kind of experiment: Binding affinity to JNK1 (unknown origin).
Test [2] concerns the target c-Jun N-terminal kinase, JNK (Homo sapiens, UniProt P45983+P53779+P45984). As to the kind of experiment: Inhibition of JNK-mediated c-Jun activation in TNFalpha-induced human SW1353 cells preincubated for 30 mins prior to TNFalpha treatment measured after 20 mins. The test is classed as cell-based.
Test [3] addresses T1, Mitogen-activated protein kinase 8. The test can be described thus: Inhibition of human JNK1alpha1 using GST-tagged ATF2 as substrate preincubated for 10 mins prior to substrate addition measured after 30 mins by microplate scintillation counting analysis.
Test [4] addresses Mitogen-activated protein kinase 9 (Homo sapiens, UniProt P45984). The test can be described thus: Inhibition of human JNK2alpha2 using GST-tagged ATF2 as substrate preincubated for 10 mins prior to substrate addition measured after 30 mins by microplate scintillation counting analysis.

The Kd is the concentration at which binding is half-saturated. Lower therefore signals a tighter complex. As a reminder, the IC50 is the concentration that gives 50% inhibition. Molecule `CS(=O)(=O)C1CCN(c2cccc3c2ccn3-c2ccnc(N[C@H]3CC[C@H](O)CC3)n2)CC1` gave a Kd in test [1] of 0.14 nM. Also, the IC50 in test [2] came to 240 nM; in test [3] it was 3 nM.
As for `CS(=O)(=O)C1CCN(c2cccc3c2ccn3-c2ccnc(N[C@H]3CC[C@@](C)(O)CC3)n2)CC1`, the IC50 in test [4] turned out to be 66 nM; in test [2], 1300 nM; in test [3], 12 nM.
